US11447470B2, “Pyrimidinone-containing compound, preparation method thereof, pharmaceutical composition and application thereof” (YUNNAN UNIVERSITY, priority 2018, dated 2022)

Assays:
[1] = tested on: C8166 cells; assay: Cytotoxicity experiment (MTT method) on C8166 cells; type: cell-based; settings: three days
Protocol: (§1) C8166 cells infected with HIV-1 were used for determining the anti-HIV biological activity at the cellular level. The specific method was described below.
(§2) Cytotoxicity experiment: The toxicity of the compounds on C8166 cells was determined by MTT method. In 96-well cell culture plates, the compounds were subjected to 5-fold serial dilution and 100 μL of C8166 cell suspension (4×10^5/mL) was added into each well. Triplicate wells were set for each concentration. […] The cells were incubated at 37° C. in a 5% CO2 incubator for three days, followed by the addition of MTT solution into each well, and then the cells were incubated at 37° C. for 4 hours. 10% SDS-50% DMF was added into each well and the cells were incubated at 37° C. in a 5% CO2 incubator overnight. After mixing evenly, the OD values were measured by BIO-TEK ELx800 ELISA instrument (determination wavelength: 570 nm; reference wavelength: 630 nm).

[2] = as above; type: cell-based; settings: human, three days
Protocol: as §1, §2

SMILES | CC50 [1] | CC50 at 3 days [2]
CCc1c(CC2CCCCC2)nc(SCc2cc(-c3ccccc3)[nH]n2)[nH]c1=O [Compound I-02] | 84.5 µM | 
CCc1c(CC2CCCCC2)nc(SCc2cc(-c3cccc(Br)c3)[nH]n2)[nH]c1=O [Compound I-03] | 76.3 µM | 
CCc1c(CC2CCCCC2)nc(SCc2n[nH]c(-c3cccc(Br)c3)c2Cl)[nH]c1=O [Compound I-04] | 58.1 µM | 
CCc1c(CC2CCCCC2)nc(SCc2cc(-c3cccc(Cl)c3)[nH]n2)[nH]c1=O [Compound I-05] | 81 µM | 
CCc1c(CC2CCCCC2)nc(SCc2n[nH]c(-c3cccc(Cl)c3)c2Cl)[nH]c1=O [Compound I-06] | 66.1 µM | 
CCc1c(CC2CCCCC2)nc(SCc2cc(-c3ccc(Cl)cc3)[nH]n2)[nH]c1=O [Compound I-07] | 83.9 µM | 
CCc1c(CC2CCCCC2)nc(SCc2cc(-c3ccc(F)cc3)[nH]n2)[nH]c1=O [Compound I-08] | 74.9 µM | 
CCc1c(CC2CCCCC2)nc(SCc2n[nH]c(-c3ccc(F)cc3)c2Cl)[nH]c1=O [Compound I-09] | 64.9 µM | 
CCc1c(CC2CCCCC2)nc(SCc2n[nH]c(-c3ccc(OC)c(Cl)c3)c2Cl)[nH]c1=O [Compound I-11] | 49.8 µM | 
CCc1c(CC2CCCCC2)nc(SCc2cc(-c3ccc(Cl)c(Cl)c3)[nH]n2)[nH]c1=O [Compound I-12] | 75.4 µM | 
CCc1c(CC2CCCCC2)nc(SCc2cc(-c3cccc(F)c3)[nH]n2)[nH]c1=O [Compound I-14] | 72 µM | 
CCc1c(CC2CCCCC2)nc(SCc2cc(-c3ccc(F)c(F)c3)[nH]n2)[nH]c1=O [Compound I-18] | 86.4 µM | 
CCc1c(CC2CCCCC2)nc(SCc2n[nH]c(-c3ccc(F)c(F)c3)c2Cl)[nH]c1=O [Compound I-19] | 115 µM | 
CCc1c(CC2CCCCC2)nc(SCc2cc(-c3ccc(F)cc3F)[nH]n2)[nH]c1=O [Compound I-20] | 59.7 µM | 
CCc1c(CC2CCCCC2)nc(SCc2n[nH]c(-c3cccc(C)c3)c2Cl)[nH]c1=O [Compound I-24] | 77.1 µM | 
CCc1c(CC2CCCCC2)nc(SCc2cc(-c3cccc(C(F)(F)F)c3)[nH]n2)[nH]c1=O [Compound I-26] | 34.4 µM | 
CCc1c(CC2CCCCC2)nc(SCc2n[nH]c(-c3cccc(C(F)(F)F)c3)c2Cl)[nH]c1=O [Compound I-27] | 55.1 µM | 
CCc1c(CC2CCCCC2)nc(SCc2cc(-c3ccc(C)cc3C)[nH]n2)[nH]c1=O [Compound I-29] | 87.4 µM | 
CCc1c(CC2CCCCC2)nc(SCc2cc(C(C)(C)C)[nH]n2)[nH]c1=O [Compound I-30] | 67.9 µM | 
CCc1c(CC2CCCCC2)nc(SCc2cc[nH]n2)[nH]c1=O [Compound I-31] | 75 µM | 
CCc1c(CC2CCCCC2)nc(SCc2cc(C)[nH]n2)[nH]c1=O [Compound I-32] | 45.2 µM | 
CCc1c(CC2CCCCC2)nc(SCc2cc(C3CC3)[nH]n2)[nH]c1=O [Compound I-33] | 47.2 µM | 
CCc1c(CC2CCCCC2)nc(SCc2cc(-c3ccccn3)[nH]n2)[nH]c1=O [Compound I-34] | 79.4 µM | 
Cc1c(CC2CCCCC2)nc(SCc2cc(-c3ccc(F)cc3)[nH]n2)[nH]c1=O [Compound I-42] | 42.2 µM | 
COc1ccc(-c2cc(CSc3nc(CC4CCCCC4)c(C)c(=O)[nH]3)n[nH]2)cc1 [Compound I-43] | 66.9 µM | 
O=c1cc(CC2CCCCC2)nc(SCc2cc(-c3ccccc3)[nH]n2)[nH]1 [Compound I-44] |  | 79.5 µM
O=c1cc(CC2CCCCC2)nc(SCc2cc(-c3ccc(F)cc3)[nH]n2)[nH]1 [Compound I-45] | 61.6 µM | 
COc1ccc(-c2cc(CSc3nc(CC4CCCCC4)cc(=O)[nH]3)n[nH]2)cc1 [Compound I-46] | 56.1 µM | 
